Results taken from patent US12226477B2, “Methods for preparing complex for enhancing immune response” (priority 2018, dated 2025).

System: influenza virus subtype A mice-lung adaptive strain FM1
Conditions: mouse, in vivo

NC(=O)c1ncn([C@@H]2O[C@H](CO)[C@@H](O)[C@H]2O)n1 [Ribavirin positive control, Ribavirin]
Death rate %: 43%
